These results are taken from article PMC3961306, “Comparison of the Cancer Gene Targeting and Biochemical Selectivities of All Targeted Kinase Inhibitors Approved for Clinical Use” (PLoS ONE, 2014).

The chains behind the UniProt entries cited, without tags or fusion partners. Residues count along the entry.
UniProt P41240, whole entry, stated change not applied: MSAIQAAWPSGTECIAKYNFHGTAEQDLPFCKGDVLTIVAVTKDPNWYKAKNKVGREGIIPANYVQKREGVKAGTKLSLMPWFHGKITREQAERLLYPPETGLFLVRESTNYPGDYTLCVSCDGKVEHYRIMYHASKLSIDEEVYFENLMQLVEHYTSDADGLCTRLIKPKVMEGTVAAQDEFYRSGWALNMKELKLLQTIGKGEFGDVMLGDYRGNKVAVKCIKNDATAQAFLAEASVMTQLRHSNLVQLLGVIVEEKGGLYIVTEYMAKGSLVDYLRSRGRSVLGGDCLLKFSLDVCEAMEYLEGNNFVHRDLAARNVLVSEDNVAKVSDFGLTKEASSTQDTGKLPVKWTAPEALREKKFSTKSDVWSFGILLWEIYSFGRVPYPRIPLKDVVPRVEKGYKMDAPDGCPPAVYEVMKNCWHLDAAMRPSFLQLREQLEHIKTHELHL
UniProt O75914, whole entry, stated change not applied: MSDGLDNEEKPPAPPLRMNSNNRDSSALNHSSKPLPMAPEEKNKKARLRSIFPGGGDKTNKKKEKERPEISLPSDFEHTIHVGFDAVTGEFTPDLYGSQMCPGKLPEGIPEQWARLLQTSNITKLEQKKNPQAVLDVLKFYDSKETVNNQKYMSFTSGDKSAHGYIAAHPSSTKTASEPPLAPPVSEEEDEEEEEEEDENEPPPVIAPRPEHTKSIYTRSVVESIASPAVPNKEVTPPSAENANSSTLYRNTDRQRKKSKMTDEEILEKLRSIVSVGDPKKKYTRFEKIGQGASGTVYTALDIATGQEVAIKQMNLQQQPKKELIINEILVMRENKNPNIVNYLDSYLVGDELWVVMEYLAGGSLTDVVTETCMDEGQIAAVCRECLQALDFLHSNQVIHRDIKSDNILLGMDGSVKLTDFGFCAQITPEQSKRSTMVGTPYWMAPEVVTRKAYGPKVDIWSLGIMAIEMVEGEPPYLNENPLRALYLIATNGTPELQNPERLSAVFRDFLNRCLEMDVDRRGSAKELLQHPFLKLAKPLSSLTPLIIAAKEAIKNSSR
UniProt Q15349, whole entry, stated change not applied: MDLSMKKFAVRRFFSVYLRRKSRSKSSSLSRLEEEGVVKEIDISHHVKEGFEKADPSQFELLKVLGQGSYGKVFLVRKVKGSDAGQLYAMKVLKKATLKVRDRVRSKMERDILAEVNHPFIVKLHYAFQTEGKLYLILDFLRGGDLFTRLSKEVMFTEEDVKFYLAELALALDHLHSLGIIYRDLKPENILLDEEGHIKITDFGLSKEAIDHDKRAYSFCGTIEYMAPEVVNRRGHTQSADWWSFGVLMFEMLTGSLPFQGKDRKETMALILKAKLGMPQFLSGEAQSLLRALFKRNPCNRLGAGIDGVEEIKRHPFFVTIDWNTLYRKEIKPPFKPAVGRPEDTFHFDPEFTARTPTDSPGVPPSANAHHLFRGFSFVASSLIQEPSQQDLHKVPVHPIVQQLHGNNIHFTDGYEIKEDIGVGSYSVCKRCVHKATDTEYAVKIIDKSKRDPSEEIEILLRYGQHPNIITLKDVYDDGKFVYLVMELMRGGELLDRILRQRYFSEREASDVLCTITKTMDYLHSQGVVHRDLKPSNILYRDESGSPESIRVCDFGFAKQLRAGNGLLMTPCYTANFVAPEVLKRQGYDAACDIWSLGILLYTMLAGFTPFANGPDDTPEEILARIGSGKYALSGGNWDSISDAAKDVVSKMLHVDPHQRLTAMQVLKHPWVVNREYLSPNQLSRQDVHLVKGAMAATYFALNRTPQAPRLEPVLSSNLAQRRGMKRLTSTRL
UniProt Q02763, 23-1124, stated change not applied: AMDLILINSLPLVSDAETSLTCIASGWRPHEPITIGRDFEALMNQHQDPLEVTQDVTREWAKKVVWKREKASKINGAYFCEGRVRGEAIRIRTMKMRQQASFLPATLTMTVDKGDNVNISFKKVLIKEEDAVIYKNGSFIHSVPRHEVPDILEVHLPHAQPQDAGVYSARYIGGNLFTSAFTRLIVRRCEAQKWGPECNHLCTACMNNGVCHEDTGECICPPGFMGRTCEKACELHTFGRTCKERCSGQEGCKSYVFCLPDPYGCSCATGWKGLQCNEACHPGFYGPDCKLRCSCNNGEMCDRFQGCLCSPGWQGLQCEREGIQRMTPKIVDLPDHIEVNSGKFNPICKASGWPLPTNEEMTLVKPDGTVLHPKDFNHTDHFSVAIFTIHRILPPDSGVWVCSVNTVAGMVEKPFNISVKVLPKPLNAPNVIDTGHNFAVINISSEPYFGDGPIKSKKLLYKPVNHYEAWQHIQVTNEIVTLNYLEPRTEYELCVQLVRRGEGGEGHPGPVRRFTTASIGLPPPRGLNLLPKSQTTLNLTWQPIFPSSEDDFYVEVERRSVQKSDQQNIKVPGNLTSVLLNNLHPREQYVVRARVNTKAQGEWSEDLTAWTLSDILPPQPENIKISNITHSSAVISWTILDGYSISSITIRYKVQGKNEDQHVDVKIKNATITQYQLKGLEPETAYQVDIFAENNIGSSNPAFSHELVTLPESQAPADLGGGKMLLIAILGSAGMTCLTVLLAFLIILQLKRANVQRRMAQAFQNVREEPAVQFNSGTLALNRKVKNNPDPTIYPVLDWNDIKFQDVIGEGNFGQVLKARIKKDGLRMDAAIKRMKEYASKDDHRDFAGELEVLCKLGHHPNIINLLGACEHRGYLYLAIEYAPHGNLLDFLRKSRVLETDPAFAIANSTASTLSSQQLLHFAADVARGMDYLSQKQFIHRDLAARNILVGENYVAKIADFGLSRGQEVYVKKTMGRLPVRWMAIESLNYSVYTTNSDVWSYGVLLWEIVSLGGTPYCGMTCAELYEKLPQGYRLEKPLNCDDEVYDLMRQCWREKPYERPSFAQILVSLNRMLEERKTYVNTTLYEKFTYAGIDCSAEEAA

The subject of assay [1] is panel of more than 300 wild-type and mutant kinases (313 kinase panel). Put plainly: Kinase profiling in a biochemical assay panel (mobility shift assays and ELISA), %-inhibition at 1 μM; selectivity entropy. As to conditions: for %-inhibition of EML4-ALK / %-inhibition of LYNb / %-inhibition of PKCβ2 / %-inhibition of SRM: 1 µM. Background: An ELISA detects its analyte on a solid surface through an enzyme-linked reagent.

For assay [2], the system named is forty-four human cancer cell lines. The assay is described as follows: Cell proliferation assay (ATPlite, 72 hours) in the 44 cell line Oncolines panel. The following applies: read-out: IC50 in cell proliferation assay (table S5 cellpanel data), U-87 MG cell line. Background: ATP-based viability assays read luminescence as a measure of living cells.
In assay [3] the target is panel of more than 300 wild-type and mutant kinases (313 kinase panel) (Homo sapiens, UniProt P41240). Put plainly: Kinase profiling in a biochemical assay panel (mobility shift assays and ELISA), %-inhibition at 1 μM; selectivity entropy. The following applies: 1 µM.
In assay [4] the target is panel of more than 300 wild-type and mutant kinases (313 kinase panel) (Homo sapiens, UniProt O75914). The assay is described as above. As to conditions: 1 µM.
The target in assay [5] is panel of more than 300 wild-type and mutant kinases (313 kinase panel) (Homo sapiens, UniProt Q15349). The description is as above. The following applies: kinase RSK3; 1 μM.
For assay [6], the target named is panel of more than 300 wild-type and mutant kinases (313 kinase panel) (Homo sapiens, UniProt Q02763). Described as above. The following applies: TIE2, 1 μM inhibitor.

Each structure is given as a SMILES string.

For the molecule `Cc1nc(Nc2ncc(C(=O)Nc3c(C)cccc3Cl)s2)cc(N2CCN(CCO)CC2)n1` [dasatinib], in assay [1], the “%-inhibition of NPM1-ALK” value is on record as -7.5%, the “%-inhibition of TAK1-TAB1” value worked out at 5.29%, the “%-inhibition of EML4-ALK” value is on record as -5% and the “%-inhibition of LYNb” value amounted to 102%. Besides, in assay [1], the “%-inhibition of PKCβ2” value is reported as 5.27% and the “%-inhibition of SRM” value turned out to be 100%.

With `COc1cccc2c1C(=O)c1c(O)c3c(c(O)c1C2=O)C[C@@](O)(C(=O)CO)C[C@@H]3O[C@H]1C[C@H](N)[C@H](O)[C@H](C)O1` [doxorubicin], the IC50 in assay [2] was found to be 101 nM.

Turning to `C#Cc1cccc(Nc2ncnc3cc(OCCOC)c(OCCOC)cc23)c1` [erlotinib], the “%-inhibition of CSK” value in assay [3] is 4.27%. Further, the “%-inhibition of PAK3” value in assay [4] is -4.27%.

With `O=S(=O)(c1cccc2cnccc12)N1CCCNCC1` [fasudil], the “%-inhibition of RSK3” value in assay [5] is given as 42%.

Take `CS(=O)(=O)CCNCc1ccc(-c2ccc3ncnc(Nc4ccc(OCc5cccc(F)c5)c(Cl)c4)c3c2)o1` [lapatinib]: in assay [1], the “%-inhibition of TAK1-TAB1” value is recorded as -1.15% and the “%-inhibition of EML4-ALK” value is listed as -4.22%.

With `CNC(=O)c1cc(Oc2ccc(NC(=O)Nc3ccc(Cl)c(C(F)(F)F)c3)c(F)c2)ccn1` [regorafenib], the “Biochemical inhibition of TIE2” value in assay [6] was “minor”.

On to `CNC(=O)c1cc(Oc2ccc(NC(=O)Nc3ccc(Cl)c(C(F)(F)F)c3)cc2)ccn1` [sorafenib], for which, in assay [1], the “%-inhibition of NPM1-ALK” value is -9%, the “%-inhibition of TAK1-TAB1” value is given as 48%, the “%-inhibition of EML4-ALK” value is listed as -1.16% and the “%-inhibition of LYNb” value was 69%. Besides, in assay [1], the “%-inhibition of PKCβ2” value is on record as -3.4% and the “%-inhibition of SRM” value amounted to 28%.
